Measured values: PubChem BioAssay (NCI)
“And” between values parts separate entries of the source, which are not always exact repeats. Equal entries are not always repeated. This is a selection; strong and weak results do not stand in their true shares.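 Treatment: one concentration, 48 hours, 96-well format. Scoring: percent growth, with anything below 10 considered active.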 The source made the active and inactive calls.

Each compound was assayed on M14 melanoma (assay: NCI-60 one-dose screen, 48 h (100 = growth as untreated, 0 = no growth, -100 = all killed)). Settings: 10 µM.
In the case of `NC(=NCCN/C(N)=N/[N+](=O)[O-])N[N+](=O)[O-]`, the growth is reported as inactive: 86.8%. In the case of `O=[N+]([O-])N(CCN(CC(Br)([N+](=O)[O-])[N+](=O)[O-])[N+](=O)[O-])CC(Br)([N+](=O)[O-])[N+](=O)[O-]`, the growth is reported as inactive: 98.7%. With `CN(C)Nc1c([N+](=O)[O-])cc([N+](=O)[O-])cc1[N+](=O)[O-]` the growth was inactive: 102%. `O=[N+]([O-])OCCOc1ccc([N+](=O)[O-])cc1[N+](=O)[O-]` was tested, and the growth was inactive: 112%. With `N=C(N)N(N)[N+](=O)[O-]` the growth was inactive: 104%. For `O=[N+]([O-])c1cc([N+](=O)[O-])c(C(F)(F)F)c([N+](=O)[O-])c1O`, the growth was inactive: 101%. `CCOC(=O)CSc1c(N)c(C)nn1C.O=[N+]([O-])c1cc([N+](=O)[O-])c(O)c([N+](=O)[O-])c1` was tested, and the growth was inactive: 106%. In the case of `O=[N+]([O-])c1ccc(OP2(=O)COCCO2)cc1` (stereo unspecified), the growth is reported as inactive: 107%. With `CCN(C)CC.O=[N+]([O-])c1cc([N+](=O)[O-])c(O)c([N+](=O)[O-])c1` the growth was inactive: 93.7%. With `OCCSCCO` the growth was inactive: 95.6%. With `CC(C)N1CCN(CCOC(=O)C(O)(c2ccccc2)c2ccccc2)CC1` the growth was inactive: 96.8%. For `O=[N+]([O-])c1ccc(Oc2c([N+](=O)[O-])cc([N+](=O)[O-])cc2[N+](=O)[O-])cc1`, the growth was inactive: 97.4%. In the case of `O=C(Cl)c1c([N+](=O)[O-])cc([N+](=O)[O-])cc1[N+](=O)[O-]`, the growth is reported as inactive: 84.7%. `O=[N+]([O-])c1cc([N+](=O)[O-])c(Nc2ccc(Cl)cc2)c([N+](=O)[O-])c1` was tested, and the growth was inactive: 65.8%. With `CNc1ccccc1.O=[N+]([O-])c1cc([N+](=O)[O-])c(O)c([N+](=O)[O-])c1` the growth was inactive: 106%. For `CCOP(=O)(CC)OCC`, the growth was inactive: 102%. `O=[N+]([O-])c1cc([N+](=O)[O-])c(O)c([N+](=O)[O-])c1.c1ccnnc1` was tested, and the growth was inactive: 106%. With `CCCOP(=S)(Cl)OCCC` the growth was inactive: 109%. `CN(C)CCS` was tested, and the growth was inactive: 104% and inactive: 99.4%. With `CCN(CC)CCS` the growth was inactive: 97.5%. `CN(CCCl)CCCCCCCl` was tested, and the growth was inactive: 97.4%. For `Cc1ccc(Nc2c([N+](=O)[O-])cc([N+](=O)[O-])cc2[N+](=O)[O-])cc1`, the growth was inactive: 104%. With `CN1CCN(CCOC(=O)C(O)(c2ccccc2)c2ccccc2)CC1` the growth was inactive: 98.6%. For `NN/C(N)=N/[N+](=O)[O-]`, the growth was inactive: 97.3%. In the case of `CP(=S)(Cl)N(CCCl)CCCl` (stereo unspecified), the growth is reported as inactive: 100%. For `CC[N+](C)(CC)Cc1cc(Cc2ccccc2)ccc1OC(=O)N(C)C`, the growth was inactive: 107%. `Clc1ccccc1SCCBr` was tested, and the growth was inactive: 103%. In the case of `CP(=O)(OCCCCl)N(CCCl)CCCl` (stereo unspecified), the growth is reported as inactive: 105%. In the case of `O=[N+]([O-])c1cccc([N+](=O)[O-])c1O`, the growth is reported as inactive: 102%. For `COC(=O)C(O)(c1ccccc1)c1ccccc1`, the growth was inactive: 100%. For `Cc1c([N+](=O)[O-])c(C)c([N+](=O)[O-])c(Nc2c([N+](=O)[O-])c(C)c([N+](=O)[O-])c(C)c2[N+](=O)[O-])c1[N+](=O)[O-]`, the growth was active: -17.7%.
